The values that follow are results of earlier work, collected in patent US20240124524A1, “Agonist of Tacr2” (University of Copenhagen, priority 2019, published 2024).

Protein sequences, listed by entry. Tags and fused reporters are not part of them.
UniProt P21452, whole entry: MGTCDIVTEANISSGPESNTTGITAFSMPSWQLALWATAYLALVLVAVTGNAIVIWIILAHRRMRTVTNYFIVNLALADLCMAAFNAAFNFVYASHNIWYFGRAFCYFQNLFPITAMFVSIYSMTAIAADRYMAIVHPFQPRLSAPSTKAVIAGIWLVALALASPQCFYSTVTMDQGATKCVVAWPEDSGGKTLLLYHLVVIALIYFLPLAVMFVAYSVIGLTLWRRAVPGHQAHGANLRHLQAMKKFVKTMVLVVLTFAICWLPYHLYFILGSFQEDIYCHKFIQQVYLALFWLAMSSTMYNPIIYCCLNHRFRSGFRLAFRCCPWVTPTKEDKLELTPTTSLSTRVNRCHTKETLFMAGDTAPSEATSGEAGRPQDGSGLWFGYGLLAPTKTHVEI

In this series the target is Tacr2 (Homo sapiens, UniProt P21452). The note with it: Sp Hs; cited from earlier work.

Regarding [Phe(Me)7]neurokinin B, the Affinity is recorded as 6.9 pKi.
